From paper PMC5648829 (Scientific Reports, 2017)

Sequences of proteins named here, by UniProt entry; tags and fusion partners are left off.
UniProt P09960, whole entry: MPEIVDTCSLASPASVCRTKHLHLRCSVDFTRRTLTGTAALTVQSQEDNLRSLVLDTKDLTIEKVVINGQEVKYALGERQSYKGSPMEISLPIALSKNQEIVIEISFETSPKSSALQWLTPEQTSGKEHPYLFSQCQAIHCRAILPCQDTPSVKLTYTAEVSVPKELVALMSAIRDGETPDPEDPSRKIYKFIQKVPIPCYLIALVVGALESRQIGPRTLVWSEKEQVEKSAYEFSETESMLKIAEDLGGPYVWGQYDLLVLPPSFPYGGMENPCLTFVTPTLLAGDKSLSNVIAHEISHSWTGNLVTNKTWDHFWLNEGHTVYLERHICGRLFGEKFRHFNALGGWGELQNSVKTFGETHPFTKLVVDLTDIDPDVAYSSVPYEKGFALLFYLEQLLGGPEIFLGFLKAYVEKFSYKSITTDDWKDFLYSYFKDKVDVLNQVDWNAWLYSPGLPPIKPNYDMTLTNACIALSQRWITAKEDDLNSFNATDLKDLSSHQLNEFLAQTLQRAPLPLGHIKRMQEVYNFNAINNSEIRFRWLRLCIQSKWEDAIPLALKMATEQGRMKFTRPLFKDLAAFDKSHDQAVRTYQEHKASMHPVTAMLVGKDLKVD

Key:
Type in all cases: biochemical
LTA4H [1] = biological target: T1, LTA4H (Homo sapiens, UniProt P09960); test: LTA4H aminopeptidase assay with surrogate substrate Arg-AMC; settings: read-out: IC50 Arg-AMC
LTA4H [2] = biological target: T1, LTA4H; test: LTA4H aminopeptidase assay with surrogate substrate Pro-AMC; settings: read-out: IC50 Pro-AMC
LTA4H [3] = biological target: T1, LTA4H; test: LTA4H aminopeptidase assay with surrogate substrate Ala-AMC; settings: for Effect on Ala-AMC hydrolysis: Table 1, whether compound increased or inhibited hydrolysis of Ala-AMC by the enzyme
LTA4H [4] = biological target: T1, LTA4H; test: PGP peptidolysis assay by LC-MS/MS; settings: for IC50: read-out: IC50 PGP
[5] = Table 1, average of minimum two biological replicates

Compound | IC50 (LTA4H [1]; [5]) [µM] | IC50 (LTA4H [2]; Table 1) [µM] | Effect on Ala-AMC hydrolysis (LTA4H [3]) | Ratio IC50 PGP/Arg-AMC (LTA4H [4]; Table 1) | IC50 (LTA4H [4]; Table 1) [µM] | IC50 (LTA4H [1]; Table 2) [µM] | IC50 (LTA4H [2]; Table 2) [µM] | IC50 (LTA4H [3]; read-out: IC50 Ala-AMC, Table 2) [µM] | IC50 (LTA4H [4]; Table 2) [µM]
Nc1nc(-c2ccc(Oc3ccccc3)cc2)cs1 | 0.092 | 0.116 | increase | 0.11 | 0.01 | – | – | – | –
OCc1ccc(Oc2ccccc2)cc1 | 4.45 | 4.05 | increase | 0.44 | 1.97 | – | – | – | –
c1ccc(Oc2ccc(-c3cnco3)cc2)cc1 | 13 | 5.43 | increase | 0.27 | 3.53 | – | – | – | –
O=Cc1ccc(Oc2nc3ncccc3s2)cc1 | – | – | – | – | – | 0.033 | 0.047 | > 25 | 0.133
Nc1ccc(Cc2ccccc2)cn1 | 6.89 | 5.89 | increase | 0.82 | 5.68 | – | – | – | –
